In patent US20190345536A1, “DETECTION METHOD FOR CHROMOSOMAL ABNORMALITIES AND METHOD FOR EVALUATING INDUCIBILITY” (Sumitomo Chemical Company, Limited, priority 2016, published 2019):

System: human iPS cell-derived T lymphocyte
Assay: Proliferation ability of human iPS cell-derived T lymphocyte by various proliferation stimulation factors (ATP amount, CellTiter-Glo; Comparative Example 1)
Assay type: cell-based

“IL-2: cytokine used as proliferation stimulation factor (Wako)” was tested, and the “luminescent signal (count)” value (100 U/mL IL-2, 66 hr, background subtracted) was 11784 count, the proliferation rate (100 U/mL IL-2, 66 hr, percentage of signal at seeding) was 9.2% and the “proliferation of human iPS cell-derived T lymphocyte by proliferation stimulation” value (proliferation stimulation for 66 hr) was “does not proliferate”.
